The chains behind the UniProt entries cited, without tags or fusion partners.
UniProt P15428, whole entry: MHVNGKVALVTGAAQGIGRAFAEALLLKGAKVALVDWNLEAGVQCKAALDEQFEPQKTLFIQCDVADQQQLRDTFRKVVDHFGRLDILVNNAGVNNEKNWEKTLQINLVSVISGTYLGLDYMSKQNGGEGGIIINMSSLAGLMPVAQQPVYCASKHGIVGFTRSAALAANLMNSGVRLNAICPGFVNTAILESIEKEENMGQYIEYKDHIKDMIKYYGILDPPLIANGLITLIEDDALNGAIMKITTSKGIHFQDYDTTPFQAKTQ

According to patent US12304897B2, “15-PGDH inhibitors” (KYORIN PHARMACEUTICAL CO., LTD., priority 2019, dated 2025):

Each compound was assayed against recombinant human 15-PGDH (Homo sapiens (Human), UniProt P15428) (assay: 15-PGDH enzyme inhibition test). Details: 4 nM recombinant human 15-PGDH, 30 μM PGE2, 1 mM NAD+, fluorescence 340/440 nm after 60 min.
Format: biochemical

| SMILES | IC50 [nM] |
| --- | --- |
| COc1noc2cc(-c3cccc4cc(C(=O)N5CCC(F)(F)CC5)cnc34)ccc12 | > 10 |
| NC(=O)c1ncc(-c2cccc3cc(C(=O)N4CCC(F)(F)CC4)ccc23)cn1 | < 3 |
| CNC(=O)c1ncc(-c2cccc3cc(C(=O)N4CCC(F)(F)CC4)ccc23)cn1 | 3 to 10 |

Now from value to compound:

| IC50 [nM] | SMILES |
| --- | --- |
| < 3 | O=C(c1ccc2c(-c3ccc4c(=O)[nH]ncc4c3)cccc2c1)N1CCC(F)(F)CC1 |
| < 3 | O=C(c1cnc2c(-c3ccc4c(=O)[nH]ncc4c3)cccc2c1)N1CCC(F)(F)CC1 |
| < 3 | O=C1NCc2cc(-c3cccc4cc(C(=O)N5CCC(F)(F)CC5)cnc34)cnc21 |
